Reference: US20180193486A1, “COMPOSITIONS AND METHODS FOR TREATMENT OF AUTOIMMUNE AND OTHER DISEASE” (priority 2010, published 2018)

The chains behind the UniProt entries cited, without tags or fusion partners. Residues count along the entry.
UniProt P22303, 32-614, species assumed: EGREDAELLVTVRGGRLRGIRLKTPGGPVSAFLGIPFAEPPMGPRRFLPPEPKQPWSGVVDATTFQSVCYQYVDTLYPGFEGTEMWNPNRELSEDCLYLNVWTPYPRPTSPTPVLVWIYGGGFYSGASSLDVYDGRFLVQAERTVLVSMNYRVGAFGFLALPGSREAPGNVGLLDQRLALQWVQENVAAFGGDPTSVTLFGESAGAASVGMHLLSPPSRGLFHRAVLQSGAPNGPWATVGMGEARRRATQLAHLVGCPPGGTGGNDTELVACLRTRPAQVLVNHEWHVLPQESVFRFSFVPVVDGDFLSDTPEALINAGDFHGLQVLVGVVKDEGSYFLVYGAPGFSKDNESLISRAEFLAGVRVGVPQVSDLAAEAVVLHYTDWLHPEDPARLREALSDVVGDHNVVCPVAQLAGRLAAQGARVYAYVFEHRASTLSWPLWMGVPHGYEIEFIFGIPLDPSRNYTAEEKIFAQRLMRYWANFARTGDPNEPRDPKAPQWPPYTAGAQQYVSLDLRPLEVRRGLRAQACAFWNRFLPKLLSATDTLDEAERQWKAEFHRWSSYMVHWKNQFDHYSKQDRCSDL

Target: acetyl cholinesterase (Homo sapiens, UniProt P22303)
Settings: compared with PBS

Row | Substance | CPT release rate in the presence of acetyl cholinesterase
1 | Poly(CDDCys-PA-PEG)-Gly-CPT [HG6] | on the same order of magnitude as in PBS
2 | Poly(CDDCys-PA-PEG)-GlyGlyGly-CPT [HGGG6] | on the same order of magnitude as in PBS
